Results as given in US20170304195A1, “PHARMACEUTICAL FORMULATIONS FOR THE ORAL DELIVERY OF PEPTIDE OR PROTEIN DRUGS” (Cyprumed GmbH, priority 2014, published 2017).
Read-outs that look alike come from different tables or passages of the source.

What was measured:
[1] = for AUC(0-t) / Cmax: human insulin 22 IU/kg into mid-jejunum, rats, sodium caprate 10 mg/ml
[2] = mid-jejunum, rats
[3] = In vitro compatibility of absorption enhancers with zinc sulfate (Example 16); format: physicochemical; settings: absorption enhancer 10 mg/ml with desmopressin acetate and ZnSO4 5 mg/ml, in 2 ml aqua purificata, visual examination
Description: Solid dry powder mixtures of desmopressin acetate, zinc sulfate and different absorption enhancers were prepared and dissolved in 2 ml aqua purificata.

[4] = no trace element, no reducing agent
[5] = predosing 10 min CuSO4 1 mg/ml + sodium ascorbate 10 mg/ml, 22 IU/kg human insulin + 50 mg/ml sodium caprate
[6] = predosing CuSO4 + sodium ascorbate, 22 IU/kg human insulin + 50 mg/ml lauroyl-DL-carnitine-chloride + 40 mg/ml Na2HPO4
[7] = predosing CuSO4 + sodium ascorbate, 22 IU/kg human insulin + 100 mg/ml Cremophor EL + 10 mg/ml Na2HPO4

| Substance | oral bioavailability of human insulin, in words ([1]; blend with sodium caprate, copper and ascorbate compared with sodium caprate alone) | AUC(0-t) ([1]; CuSO4 1 mg/ml, ascorbate) | Cmax ([1]; CuSO4 1 mg/ml, ascorbate) | AUC(0-t) [1, 4] | Cmax [1, 4] | AUC(0-t) [2, 5] | Cmax [2, 5] | AUC(0-t) [2, 6] | Cmax [2, 6] | AUC(0-t) [2, 7] | Cmax [2, 7] | Dissolution in aqueous medium (2 ml) [3] |
| --- | --- | --- | --- | --- | --- | --- | --- | --- | --- | --- | --- | --- |
| human insulin | moderately improved the oral bioavailability | 2505 ± 2921 pmol·min/L | 0.037 ± 0.054 nM | 2093 ± 1759 pmol·min/L | 0.028 ± 0.024 nM | 5351 ± 2289 pmol·min/L | 0.072 ± 0.026 nM | 145896 ± 89530 pmol·min/L | 1.85 ± 1.12 nM | 2340 ± 899 pmol·min/L | 0.048 ± 0.023 nM | – |
| Sucrose laurate | – | – | – | – | – | – | – | – | – | – | – | Clear solution |
